From PubChem BioAssay AID720706 (Broad Institute, 2013)
The entries are a selection whose mix differs from that of the whole data set. Some tests of the compounds listed are not included; inactive here does not mean inactive elsewhere. The source made the active and inactive calls.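 How the source made its calls: active means significant combined selectivity score with lowered wild-type GFP, culture density cut under 30%, mutant RFP and density less affected; inactive means any of these conditions unmet.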

Experiment: GFP drop in mixed WT/humanized-ribosome E. coli culture – GFP/RFP fluorescence, OD600, single point, bacterial rRNA inhibitor project, primary screen (AID 720706)
Settings: E. coli WT GFP vs humanized-ribosome RFP mutants, 24 h, stronger effect = lower value, DMSO median 0, no signal -100

Question: For `CN1[C@@H]2CC[C@H]1CC(OC(=O)C(O)(c1ccccc1)c1ccccc1)C2` (stereo partly specified), which GFP signal change (wild-type ribosome) is on record?
Answer: inactive: 8.56%

Question: Which GFP signal change (wild-type ribosome) does the source give for `O=C(NCC1(N2CCCCC2)CCCCC1)c1cc([N+](=O)[O-])ccc1Cl` here?
Answer: inactive: 3.66%

Question: Which GFP signal change (wild-type ribosome) does the source give for `Cc1ccc(C(=O)NCC2(N3CCCCC3)CCCCC2)cc1` here?
Answer: inactive: 5.95%

Question: For `CCN(CC)CC(C)C(C)OC(=O)C(O)(c1ccccc1)c1ccccc1` (stereo unspecified), which GFP signal change (wild-type ribosome) is on record?
Answer: inactive: 14.8%

Question: For `COc1cc(SC)ccc1C(=O)NCC1(N(C)C)CCCCC1`, which GFP signal change (wild-type ribosome) is on record?
Answer: inactive: 11.6%

Question: Which GFP signal change (wild-type ribosome) does the source give for `Cc1ccccc1C(=O)NCC1(N2CCCCC2)CCCCC1` here?
Answer: inactive: 6.95%

Question: Which GFP signal change (wild-type ribosome) does the source give for `CN(C)c1ccc(C(=O)NCC2(N(C)C)CCCCC2)cc1` here?
Answer: inactive: 4.64%

Question: For `COc1ccc(C(=O)NCC2(N(C)C)CCCCC2)cc1`, which GFP signal change (wild-type ribosome) is on record?
Answer: inactive: 6.92%

Question: Which GFP signal change (wild-type ribosome) does the source give for `Cc1cc(C(=O)NCC2(N3CCCCC3)CCCCC2)ccc1[N+](=O)[O-]` here?
Answer: inactive: 12.2%

Question: Which GFP signal change (wild-type ribosome) does the source give for `O=C(NCC1(N2CCCCC2)CCCCC1)c1cccc(Br)c1` here?
Answer: inactive: 3.6%

Question: Which GFP signal change (wild-type ribosome) does the source give for `C=CCN1CCN(CCOC(=O)C(O)(c2ccccc2)c2ccccc2)CC1` here?
Answer: inactive: 24.6%

Question: For `O=C(NCC1(N2CCCCC2)CCCCC1)c1cc(F)c(F)cc1Cl`, which GFP signal change (wild-type ribosome) is on record?
Answer: inactive: 4.64%

Question: With `COc1cc(C(=O)NCC2(N(C)C)CCCCC2)c([N+](=O)[O-])cc1OC` as the molecule, how does the GFP signal change (wild-type ribosome) read?
Answer: inactive: 17.6%

Question: For `CN(C)C1(CNC(=O)c2ccc(Br)cc2)CCCCC1`, which GFP signal change (wild-type ribosome) is on record?
Answer: inactive: 12.9%

Question: With `O=C(NCC1(N2CCCCC2)CCCCC1)c1cccc(Cl)c1` as the molecule, how does the GFP signal change (wild-type ribosome) read?
Answer: inactive: 2.96%

Question: For `COc1cccc(C(=O)NCC2(N3CCCCC3)CCCCC2)c1`, which GFP signal change (wild-type ribosome) is on record?
Answer: inactive: 7.29%

Question: For `COc1ccc(Cl)cc1C(=O)NCC1(N(C)C)CCCCC1`, which GFP signal change (wild-type ribosome) is on record?
Answer: inactive: 6.75%

Question: Which GFP signal change (wild-type ribosome) does the source give for `CC(C)Oc1ccc(C(=O)NCC2(N(C)C)CCCCC2)cc1` here?
Answer: inactive: 5.68%

Question: For `O=C(OCCN1CCCC1)C(O)(c1ccccc1)c1ccccc1`, which GFP signal change (wild-type ribosome) is on record?
Answer: inactive: 8.6%

Question: Which GFP signal change (wild-type ribosome) does the source give for `C=C(C)C#CC(O)(C(=O)OC1CCN(C)CC1)c1ccccc1` (stereo unspecified) here?
Answer: inactive: 6.83%

Question: For `COc1ccc(Br)c(C(=O)NCC2(N3CCCCC3)CCCCC2)c1`, which GFP signal change (wild-type ribosome) is on record?
Answer: inactive: 4.83%
